In patent publication US9623046B2, “Amphiphilic Janus-dendrimers” (The Trustees Of The University Of Pennsylvania, priority 2009, dated 2017):

settings: isolated salt

Q: With “(3,4,5)4G1-PhA-(3,4,5)-3-G1-(NH3Cl)3 [104a]” as the substance, how does the “solubility in common solvents” value read?
A: The value was “poor solubility in common solvents”.

Q: Which “solubility in common solvents” value does the source give for “(3,4,5)12G1-BnA-(3,4,5)-3-G1-(NH3Cl)3 [compound 109]” here?
A: Its value is “poor solubility in common organic solvents”.

Q: For “(3,4,5)12G1-PhA-(3,4,5) 3-G1-(NH3Cl)3 [104b]”, which “solubility in common solvents” value is on record?
A: The value was “poor solubility in common solvents”.
